# Measured values reported in article PMC4507791 (2015).
# Sequences of proteins named here, by UniProt entry; tags and fusion partners are left off.
# UniProt P27338, whole entry: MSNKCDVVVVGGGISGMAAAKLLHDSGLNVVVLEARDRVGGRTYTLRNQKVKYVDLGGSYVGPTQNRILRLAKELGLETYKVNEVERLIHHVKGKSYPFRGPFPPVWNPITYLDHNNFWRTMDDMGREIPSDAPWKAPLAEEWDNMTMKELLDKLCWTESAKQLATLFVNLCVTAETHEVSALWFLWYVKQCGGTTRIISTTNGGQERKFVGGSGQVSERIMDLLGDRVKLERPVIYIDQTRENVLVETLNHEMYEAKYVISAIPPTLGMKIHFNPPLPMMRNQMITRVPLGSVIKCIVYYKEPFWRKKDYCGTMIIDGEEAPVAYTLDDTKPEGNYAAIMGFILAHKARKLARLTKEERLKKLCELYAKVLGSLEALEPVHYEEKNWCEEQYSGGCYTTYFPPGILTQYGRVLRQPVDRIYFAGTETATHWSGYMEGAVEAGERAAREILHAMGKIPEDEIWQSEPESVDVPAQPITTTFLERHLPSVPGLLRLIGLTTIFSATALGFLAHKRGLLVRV
# Target: MAO-B (Homo sapiens, UniProt P27338)
# Assay: IC50 determination, inhibition of recombinant human MAO-B
# Assay type: biochemical
# Settings: for SI (selectivity index, IC50(MAO-A)/IC50(MAO-B)): selectivity for the MAO-B isoform
Compound,"SI (selectivity index, IC50(MAO-A)/IC50(MAO-B))",IC50
"CC(=O)c1ccc(OCc2cccc(F)c2)cc1O [Compound 2d, 2-Acetyl-5-(3-fluorobenzyloxy)phenol]","> 9,550 and 17,482",
"CC(=O)c1ccc(OCc2ccc(F)cc2)cc1O [Compound 2e, 2-Acetyl-5-(4-fluorobenzyloxy)phenol]","1,233",
"CC(=O)c1ccc(OCc2ccc(Cl)cc2)cc1O [Compound 2g, 2-Acetyl-5-(4-chlorobenzyloxy)phenol]",,14 ± 2 nM

# Values joined by “and” are separate entries in the source; they are usually repeats but may differ in a detail not shown here. Identical values can stand only once.
